Experimental data from patent US12545653B2, “Compound as PPAR agonist and application thereof” (USA Elixiria Biotech Inc., priority 2019, dated 2026).
Values joined by “and” are separate entries in the source; they are usually repeats but may differ in a detail not shown here. Equal values may be shown once.

What was measured:
[1] = Blood-brain barrier permeability: brain concentration after a single injection; settings: male, rat, in vivo, ip, 10 mg/kg
Description: The blood-brain barrier permeability of carbonyl-containing cyclic compounds is determined in in vivo studies. Healthy male rats used in the study were divided into compound group and control group. […] The brains were dissected, heated immediately at boiling water for 2 min, homogenized with methanol, and centrifuged. The upper layer was collected and dried under vacuum to remove solvents, and then resuspended in methanol. The above samples are filtered through a 0.45 micron nylon membrane, and then 20 microL of sample were load into a high-performance liquid chromatographic (HPLC) system (Model LC-16P, Shimadzu, Japan) to perform quantitative analysis. […] For ELB00824, the mobile phases consisted of 75% methanol and 0.4% acetic acid in water (solvent A), and 50% acetonitrile, 37.5% methanol, 12.5% tetrahydrofuran, 0.4% acetic acid in acetonitrile (solvent B).

[2] = high oral doses (10 mg/kg body weight), animal study, reference 1; cited from earlier work

Cmax [1]	time to maximum brain concentration (Tmax) [1] [h]	SMILES	concentration in the brain [2]
2.2 µM and 740 ng/mL		CCc1ccc(CCOc2ccc(CC3SC(=O)NC3=O)cc2)nc1 (stereo not shown) [pioglitazone]	
1.4 µM and 504 ng/mL	1	CN(CCOc1ccc(CC2SC(=O)NC2=O)cc1)c1ccccn1 (stereo not shown) [rosiglitazone]	about 0.7 micromole/L
